Experiment: Partition coefficient (log P), shake-flask method, n-octanol/water
Conditions: values of text and unnumbered table
Procedure: Partition coefficients (log P) for these three complexes were evaluated by shake-flask method and these were correlated to the lipophilicity of respective complexes.
n-Octanol saturated water and water saturated octanol was obtained using Millipore water stirred with n-octanol for 24 h before the two layers were separated by centrifugation (3000 rpm, 5 min). The chloride salts of complex 1 and 2 were dissolved in n-octanol saturated water giving concentrations ranging from 0.5 to 3.0 mmol. This was then mixed with water saturated n-octanol in the ratio of 1:1 (v/v). Resulting solvent mixtures were vertexed for 30 min at room temperature, and then were subjected to centrifugation (3000 rpm, 5 min) to get two distinct separate layers. Samples from each layer were obtained using a fine-gauge needle and the absorbance of respective complex in each phase determined using UV-Vis spectroscopy.

## {bis-(2,2′-bpy)-(1-((4′-methyl-[2,2′-bipyridin]-4-yl)methyl)pyrimidine-2,4(1H,3H)-dione)}ruthenium(II) dichloride [Complex 2]
  log P: −0.50
